# Source: paper PMC4884960, “Long lasting MDM2/Translocator protein modulator: a new strategy for irreversible apoptosis of human glioblastoma cells” (Oncotarget, 2016)
# By UniProt entry, the sequences of proteins in these tests, tags left out.
# UniProt P30536, whole entry: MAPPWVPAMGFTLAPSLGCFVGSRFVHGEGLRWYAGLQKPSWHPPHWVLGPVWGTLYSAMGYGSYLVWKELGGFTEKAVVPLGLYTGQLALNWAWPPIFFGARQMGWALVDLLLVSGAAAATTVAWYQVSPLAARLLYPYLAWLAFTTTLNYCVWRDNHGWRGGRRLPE
# Legend:
# human TSPO [1] = biological target: T1, human TSPO (Homo sapiens, UniProt P30536); assay: TSPO association/dissociation and competition kinetics with [3H]PK11195; assay type: binding
# T1 construct: aliquots of U87MG cell membranes (20 μg of proteins) were incubated with [^3H]PK 11195 (1.5 nM); endogenous in cells; host or cells: U87MG human glioblastoma cell membranes
# Protocol: Association kinetics for [^3H]PK11195 were determined incubating U87MG cell membranes (20 μg protein) with 1.5 nM radioligand at various time points up to a total of 3 h. Dissociation kinetics were determined by pre-equilibrating membranes and [^3H]PK11195 for 120 min and the adding a saturating concentration of cold PK11195 (1 μM).
# Association and dissociation rate constants for [^3H] PK11195 binding were determined by global analysis of the association and dissociation binding curves according to mono-exponential association and decay curves. From this analysis an estimate of the dissociation (koff) and observed association (kobs) rates for ligand binding was generated; the association rate constant (kon) was determined according to the following relationship kobs = [A] kon + koff; ligand-receptor half-life was calculated as 0.693/koff.
# For competition kinetics, the [^3H] PK11195 curves in the presence and absence of EB54 or EB148, were fitted using the equations in Dowling and Charlton.
# human TSPO [2] = biological target: T1, human TSPO; assay: Equilibrium [3H]PK11195 radioligand binding assay in U87MG cell membranes
# Protocol: Equilibrium radioligand binding assays were performed essentially as previously described. Briefly, aliquots of U87MG cell membranes (20 μg of proteins) were incubated with [^3H]PK 11195 (1.5 nM) in the presence (non-specific binding) or in the absence (total binding) of unlabelled PK 11195 (1 μM), in the final volume of 500 μl of assay buffer for 120 min at 0°C. Samples were rapidly filtered under vacuum through GF/C glass fiber filters. Radioactivity was measured by liquid scintillation counter (TopCount; PerkinElmer Life and Analytical Sciences; 65 % counting efficiency). In U87MG cell membranes, [^3H]PK11195 maximum number of binding sites (Bmax) and affinity (Kd) were determined in previous experiments by Scatchard analysis of saturation binding data.
compound,measurement,setting,value
"CCC(C)N(C)C(=O)c1cc2ccccc2c(-c2ccccc2Cl)n1 (centres unmarked) [PK11195, reference compound]",Kd,human TSPO [1],2.89 nM
same,Ki,human TSPO [2],2.88 ± 0.13 nM
